Measured values taken from PubChem BioAssay AID588621 (Sanford-Burnham Center for Chemical Genomics, 2011).
The entries are a selection whose mix differs from that of the whole data set. Calls of active or inactive are those of the source.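 The calls were made as follows: active = inhibition at 20 µM, scaled per plate between control wells, above about 37% (limit read from the data); inactive = the rest.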

Sequences of proteins named here, by UniProt entry; tags and fusion partners are left off. A change or cut given only in a name is not applied to a line headed by its entry.
UniProt P54829: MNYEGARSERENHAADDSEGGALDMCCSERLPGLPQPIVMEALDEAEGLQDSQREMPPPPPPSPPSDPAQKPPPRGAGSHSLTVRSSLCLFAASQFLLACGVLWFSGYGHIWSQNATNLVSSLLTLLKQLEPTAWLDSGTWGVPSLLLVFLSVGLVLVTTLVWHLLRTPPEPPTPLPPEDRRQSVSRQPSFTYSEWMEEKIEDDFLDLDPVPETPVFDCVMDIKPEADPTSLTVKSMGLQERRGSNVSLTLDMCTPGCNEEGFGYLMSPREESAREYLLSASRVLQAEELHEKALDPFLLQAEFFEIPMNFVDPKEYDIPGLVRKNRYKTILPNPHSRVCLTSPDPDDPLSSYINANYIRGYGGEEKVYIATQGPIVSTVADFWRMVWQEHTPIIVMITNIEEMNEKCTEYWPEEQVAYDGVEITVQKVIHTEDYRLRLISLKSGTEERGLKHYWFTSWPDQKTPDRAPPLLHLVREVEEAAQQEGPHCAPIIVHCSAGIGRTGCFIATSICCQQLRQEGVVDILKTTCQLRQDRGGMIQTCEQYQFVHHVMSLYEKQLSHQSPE

molecular target: Tyrosine-protein phosphatase non-receptor type 5 (Homo sapiens) (UniProt P54829); experiment: inhibition of human PTPN5 enzyme activity – biochemical, fluorescence intensity, uHTS, primary screen (AID 588621); conditions: recombinant STEP, OMFP fluorogenic substrate, at 20 µM, hits give high values;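 also: 0% = DMSO with enzyme and substrate and 100% = substrate only without enzyme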
In short: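 Material: STEP (striatal-enriched tyrosine phosphatase) enzyme, cell-free | Medium: 50 mM Bis-Tris pH 6.0 with 2.5 mM DTT and 0.005% Tween 20 | Read-out: Percent inhibition scaled to no-enzyme and uninhibited-enzyme controls, plate-pattern corrected | Signal: Fluorescence read at 480 nm ex / 540 nm em | Times: 20 min reaction, room temperature, in the dark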

| SMILES | inhibition |
| --- | --- |
| Nc1cccc2ccc([As](=O)(O)O)cc12 | inactive: 17.7% |
| CCN(N=Nc1nonc1N)c1nonc1N | inactive: 0% |
| Cc1cc(SC(NC(=O)c2ccc(F)cc2)C(Cl)(Cl)Cl)ncn1 (configuration not stated) | inactive: -1.1% |
| CCOP(=O)(Nc1ccccc1)OCC | inactive: 0.5% |
| Cc1ccc(NP(=O)(Oc2ccccc2F)Oc2ccccc2F)nc1 | inactive: -0.9% |
| CN(C(=O)Cc1ccc(Cl)c(Cl)c1)[C@H]1CCCC[C@@H]1N1CCCC1 | inactive: 1.5% |
| O=P(Nc1nc2ccc(Cl)cc2s1)(c1ccccc1)c1ccccc1 | inactive: 3% |
| CN(C)P(=O)(N(C)C)n1c(Nc2ccccc2)nnc1-c1ccccc1 | inactive: -2.6% |
| CC(=O)Nc1ccc([As](=O)(O)O)cc1 | inactive: 5.8% |
| O=C(O)c1ccccc1[As](=O)(O)O | inactive: 3.8% |
| CCCC1OP(N)(=O)OCC1CC (configuration not stated) | inactive: -2.8% |
| O=[N+]([O-])C1C(O)C(O)C([N+](=O)[O-])C(O)C1O (configuration not stated) | inactive: 8% |
| Oc1ccccc1CNc1ccccn1 | inactive: -1.7% |
| O=C(NC(Sc1ccncn1)C(Cl)(Cl)Cl)c1ccccc1 (configuration not stated) | inactive: 1.1% |
| Nc1cc(N)c2nonc2c1[N+](=O)[O-] | inactive: 17.4% |
| CC(C)CC(=O)NC(Sc1ccc(Cl)cc1)C(Cl)(Cl)Cl (configuration not stated) | inactive: -3.1% |
| CN1CCCC(OC(=O)C(c2ccccc2)c2ccccc2)C1 (configuration not stated) | inactive: 0.8% |
| Clc1ccc(Cl)c(NC2=NCC(CBr)S2)c1 (configuration not stated) | inactive: -0.2% |
| COc1ccccc1OP(=O)(Nc1ccc(C)cn1)Oc1ccccc1OC | inactive: 0.2% |
| Cc1ccc(OP(=O)(Nc2nccs2)Oc2ccc(C)cc2)cc1 | inactive: -2.1% |
| CN(C(=O)Cc1ccc(Cl)c(Cl)c1)[C@H]1CCCC[C@H]1N1CCCC1 | inactive: 0.7% |
| Cc1ccc(N/C(=N/P(=O)(N2CCOCC2)N2CCOCC2)N2CCOCC2)cc1 | inactive: -2% |
| NC(=O)c1cc([N+](=O)[O-])cc([N+](=O)[O-])c1N | inactive: -3.5% |
| CC1CCN(C(=O)Oc2c(Cl)cc(Cl)c3cccnc23)CC1 | inactive: 0.2% |
| c1cc(-c2nn[nH]n2)ccc1-c1nn[nH]n1 | inactive: -0.3% |
| CC(C)c1nc(Nc2ccccc2)n(P(=O)(N(C)C)N(C)C)n1 | inactive: -4.1% |

| SMILES | inhibition |
| --- | --- |
| CC(C)=N/N=C(\N)N[N+](=O)[O-] | inactive: 2.9% |
| CN(C)C(=O)OCCc1n(C)cc[n+]1C | inactive: -0.3% |
| CCN(/C(=N/P(=O)(N1CCOCC1)N1CCOCC1)N1CCOCC1)c1ccc(OC)cc1 | inactive: -0.3% |
| Nc1ccc([As](=O)(O)c2ccc(N)cc2)cc1 | inactive: 2.5% |
| C[N+]1=C2C=CC=CC=C2SC12C([N+](=O)[O-])=CC([N+](=O)[O-])=C[C-]2[N+](=O)[O-] (configuration not stated) | inactive: 24.1% |
| Cc1ccc(NP(=O)(Oc2ccccc2)Oc2ccccc2)nc1 | inactive: 1.5% |
| CCc1nc2c(n1)c1c(non1O)c1c2no[n+]1[O-] | inactive: 3% |
| O=[N+]([O-])c1cc([N+](=O)[O-])c(CCNc2ccccc2)c([N+](=O)[O-])c1 | inactive: 0.8% |
| O=[N+]([O-])c1cccc2n[nH]nc12 | inactive: 6.9% |
| CC(=O)N1C2C3N(C(C)=O)C1C1N(C(C)=O)C(C(N1C(C)=O)N3C(C)=O)N2C(C)=O | inactive: -3% |
| COc1ccc(C2=NCC(CBr)S2)cc1 (configuration not stated) | inactive: -4% |
| O=C(O)CNc1ccc([As](=O)(O)O)cc1 | inactive: 0.3% |
| COC(=O)C1(C)COP(=O)(Nc2ccccc2)OC1 (configuration not stated) | inactive: 0.6% |
| O=[N+]([O-])c1cccc(NC2=NCC(CBr)S2)c1 (configuration not stated) | inactive: -1.7% |
| O=[N+]([O-])c1ncn(CCn2ncnc2[N+](=O)[O-])n1 | inactive: -0.3% |
| CC(C)(C)C(=O)NC(Sc1ccncn1)C(Cl)(Cl)Cl (configuration not stated) | inactive: 1.3% |
| O=C(Nc1cc([As](=O)(O)O)ccc1O)c1ccccc1 | inactive: 2.6% |
| O=P1(N(CCCl)CCCl)OCCCS1 (configuration not stated) | inactive: 0.9% |
| O=C(OC1CN2CCC1CC2)c1cccc(Cl)c1 (configuration not stated) | inactive: 1.9% |
| C(Cc1nn[nH]n1)Cc1nn[nH]n1 | inactive: -1.3% |
| Nc1ccc([As](=O)(O)c2ccc([N+](=O)[O-])cc2)cc1 | inactive: 0.2% |
| O=[As](O)(c1ccccc1)c1ccc(O)cc1 | inactive: -0.3% |
| O=[N+]([O-])c1ccc(O)c(/C=N/Nc2ccc([N+](=O)[O-])cc2[N+](=O)[O-])c1 | inactive: 8.9% |
| O=[N+]([O-])c1ncn(CCn2cnc([N+](=O)[O-])n2)n1 | inactive: -1.4% |
| CC(=O)NC(SC(=S)N(C)C)C(Cl)(Cl)Cl (configuration not stated) | inactive: 1.6% |
| O=P(Nc1nc2ccccc2s1)(c1ccccc1)c1ccccc1 | inactive: 5.3% |

| SMILES | inhibition |
| --- | --- |
| C[C@H]1OP(=O)(Oc2ccccc2)[C@H](O)[C@H](O)[C@H]1N=[N+]=[N-] (some centres not stated) | inactive: -2.2% |
| O=P(Nc1ccccn1)(c1ccc(Br)cc1)c1ccc(Br)cc1 | inactive: -1.9% |
| CN(C)C1(CNC(=O)c2ccc(Cl)c(S(N)(=O)=O)c2)CCCCC1 | inactive: -5.1% |
| COc1ccc(N)c([N+](=O)[O-])c1[N+](=O)[O-] | inactive: 2.7% |
| Nc1ccc(CCCCOc2ccccc2)cc1 | inactive: 1.7% |
| c1nnnn1CCn1cnnn1 | inactive: 3.2% |
| CC(C)C(=O)NC(Sc1ccccc1)C(Cl)(Cl)Cl (configuration not stated) | inactive: -3.4% |
| O=P(Nc1nccs1)(c1ccccc1)c1ccccc1 | inactive: 5% |
| CC(=O)Nc1ccc([As](=O)(O)O)c(O)c1 | inactive: 3% |
| CC(=O)Nc1ccc(Oc2c([N+](=O)[O-])cc([N+](=O)[O-])cc2[N+](=O)[O-])cc1 | inactive: 1.3% |
| Cc1ccccc1CN(C)C(=O)COC(=O)C(O)(c1ccccc1)c1ccccc1 | inactive: -2.1% |
| C[C@H]1OP(=O)(Oc2ccccc2)C[C@@H]2O[C@@H]21 (some centres not stated) | inactive: -1.2% |
| C[C@@H]1C=CCP(=O)(Oc2ccccc2)O1 (some centres not stated) | inactive: -0.4% |
| CC(=O)c1ccc(N2CC2c2ccncc2)cc1 (configuration not stated) | inactive: -0.4% |
| N#C/C(=C\c1ccc(N(CCBr)CCBr)cc1)C(N)=O | inactive: -0.4% |
| COC(=O)C1(C)COP(=O)(NCc2ccccc2)OC1 (configuration not stated) | inactive: 1.2% |
| CC(C)(C)C(=O)NC(Sc1ccccc1)C(Cl)(Cl)Cl (configuration not stated) | inactive: -2.6% |
| CCc1cc(O)c([N+](=O)[O-])c(C)c1[N+](=O)[O-] | inactive: -1.9% |
| O=P1(Nc2nc3ccc(Cl)cc3s2)COc2ccccc2O1 (configuration not stated) | inactive: 1.2% |
| CCOc1ccc(C2=NCC(CBr)S2)cc1 (configuration not stated) | inactive: 1.3% |
| CC(NC(=O)COC(=O)C(O)(c1ccccc1)c1ccccc1)c1ccccc1 (configuration not stated) | inactive: -1.2% |
| Cc1ccccc1OP(=O)(Nc1ccccn1)Oc1ccccc1C | inactive: -1.2% |
| O=c1c2cc([N+](=O)[O-])ccc2[nH]c2c([N+](=O)[O-])cc([N+](=O)[O-])cc12 | inactive: 2.8% |
| CN(C)C(=O)Oc1noc2ccccc12 | inactive: -0.9% |
| O=C(OC1CN2CCC1CC2)c1ccccc1 (configuration not stated) | inactive: -0.6% |
| CCC(=O)N1C2C3N(C(=O)CC)C1C1N(C(=O)CC)C(C(N1C(=O)CC)N3C(=O)CC)N2C(=O)CC | inactive: -0.3% |

| SMILES | inhibition |
| --- | --- |
| COC(=O)c1cc2c(s1)N=C(c1ccccc1)N(C)P2(=O)N1CCOCC1 (configuration not stated) | inactive: -3.3% |
| Cc1ccc(OP(=O)(Nc2ccccn2)Oc2ccc(C)cc2)cc1 | inactive: 6.5% |
| CC(=O)NC(SC(=S)N(CC(C)C)CC(C)C)C(Cl)(Cl)Cl (configuration not stated) | inactive: 0.1% |
| O=P1(N(CCCl)CCCl)OCCC2CCCCN21 (configuration not stated) | inactive: -2.2% |
| c1ccc(-c2nn[nH]n2)c(-c2nn[nH]n2)c1 | inactive: 1.7% |
| Cc1ccc(NP(=O)(Oc2cccc(C)c2)Oc2cccc(C)c2)nc1 | inactive: -3.4% |
| CCNC(=S)/N=C(\N)N[N+](=O)[O-] | inactive: 3.6% |
| O=C(NC1CCS(=O)(=O)C1)NP(=S)(Oc1ccccc1)Oc1ccccc1 (configuration not stated) | inactive: -0.8% |
| N#CCCN(C(=O)COC(=O)C(O)(c1ccccc1)c1ccccc1)c1ccc(F)cc1 | inactive: -2.4% |
| CN(C(=O)Cc1ccccc1)[C@@H]1CC[C@]2(CCCO2)C[C@H]1N1CCCC1 | inactive: 0.9% |
| CCOP1(=S)c2c(C)nn(CCC#N)c2N=C(c2ccc(F)cc2)N1C (configuration not stated) | inactive: 1% |
| O=[N+]([O-])c1ccc2c(c1)nnn2O | inactive: -0.6% |
| CN(C)C(=O)c1cc([N+](=O)[O-])cc2c1-c1c(cc([N+](=O)[O-])cc1[N+](=O)[O-])C2=O | inactive: -1% |
| CN(C(=O)Cc1ccc(Cl)c(Cl)c1)[C@H]1CC[C@@]2(CCCO2)C[C@@H]1N1CCCC1 | inactive: 2.2% |
| NC(=O)Nc1ccc([As](=O)(O)O)cc1 | inactive: 1% |
| Nc1ccccc1[As](=O)(O)c1ccccc1 | inactive: -1.9% |
| O=C(O)COc1ccc([As](=O)(O)O)cc1[N+](=O)[O-] | inactive: -1.4% |
| CCOP1(=S)c2c(C)nn(CCC#N)c2N=C(c2ccccc2F)N1C (configuration not stated) | inactive: -0.1% |
| O=P(Nc1nccs1)(Oc1ccccc1)Oc1ccccc1 | inactive: -2.2% |
| O=P(Nc1nccs1)(c1ccccc1)c1nc2ccccc2s1 (configuration not stated) | inactive: -3.1% |
| CS(=O)(=O)c1cc([N+](=O)[O-])c2no[n+]([O-])c2c1 | inactive: 4.9% |
| COc1cc(C2NCCC3(OCCO3)C2(C)C)cc(OC)c1OC (configuration not stated) | inactive: 0.9% |
| CCOP(=O)(Nc1cccc2ccccc12)OCC | inactive: 0.7% |
| Nc1cccc2c([As](=O)(O)O)cccc12 | inactive: 4.1% |
